CycPeptMPDB entries from one study

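Lipid, pH, incubation time, direction and concentration are not recorded in the data file. Other peptides of the study may be missing here. Peptides that the database sets to -10, its floor, are left out.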

PAMPA measures passive passage through an artificial lipid membrane.
P is given in units of 10^-6 cm/s (from log10 values with two decimals); larger means faster passage.

CCCN1CC(=O)N(Cc2ccccc2)CC(=O)N[C@@H](CC(C)C)C(=O)N2CCC[C@H]2C(=O)N(C)[C@@H](CC(C)C)C(=O)N[C@@H](Cc2ccccc2)C(=O)N2CCC[C@H]2C1=O is reported with PAMPA 4.3 × 10^-6 cm/s. The entry for CC(C)C[C@@H]1NC(=O)[C@@H](C)N(C)C(=O)[C@H]2CCCN2C(=O)[C@H](Cc2ccccc2)NC(=O)[C@H](CC(C)C)N(C)C(=O)[C@@H]2CCCN2C(=O)[C@H](CC(C)C)NC1=O lists PAMPA 3.5 × 10^-6 cm/s. Listed for CC(C)C[C@@H]1NC(=O)[C@@H]2CCCN2C(=O)[C@H](CC(C)C)NC(=O)[C@H](CC(C)C)N(C)C(=O)C[C@H](Cc2ccccc2)NC(=O)[C@H](Cc2ccccc2)NC1=O: PAMPA 1.8 × 10^-6 cm/s. The entry for CC(C)C[C@@H]1NC(=O)[C@@H]2CCCN2C(=O)[C@@H](CC(C)C)N(C)C(=O)[C@H](CC(C)C)NC(=O)[C@H](C)NC(=O)[C@H](Cc2ccccc2)NC1=O lists PAMPA 2 × 10^-6 cm/s. Listed for CC(C)C[C@@H]1C(=O)N2CCC[C@@H]2C(=O)N[C@H](CC(C)C)C(=O)N[C@@H](Cc2ccccc2)C(=O)N(C)[C@H](C)C(=O)N(C)[C@@H](CC(C)C)C(=O)N1C: PAMPA 8.1 × 10^-6 cm/s.

The entry for CC(C)C[C@@H]1NC(=O)[C@H](CC(C)C)N(C)C(=O)[C@@H](C)N(C)C(=O)[C@H]2CCCN2C(=O)[C@H](Cc2ccccc2)NC(=O)[C@@H](CC(C)C)NC(=O)[C@H]2CCCN2C1=O lists PAMPA 0.78 × 10^-6 cm/s. CC(C)C[C@@H]1C(=O)N2CCC[C@@H]2C(=O)N[C@H](CC(C)C)C(=O)N[C@@H](Cc2ccccc2)C(=O)N2CCC[C@H]2C(=O)N[C@@H](Cc2ccccc2)CC(=O)N[C@H](CC(C)C)C(=O)N1C has PAMPA 3.3 × 10^-6 cm/s. CC(C)C[C@@H]1NC(=O)[C@@H](CC(C)C)N(C)C(=O)[C@H](C)NC(=O)[C@@H]2CCCN2C(=O)[C@H](Cc2ccccc2)NC(=O)[C@@H](CC(C)C)N(C)C(=O)[C@H]2CCCN2C1=O has PAMPA 1.3 × 10^-6 cm/s. CC(C)C[C@@H]1NC(=O)[C@@H](CC(C)C)N(C)C(=O)[C@H](C)NC(=O)[C@H](Cc2ccccc2)NC(=O)[C@@H](CC(C)C)NC(=O)[C@H]2CCCN2C1=O has PAMPA 2 × 10^-6 cm/s. For CC(C)C[C@@H]1C(=O)N(C)[C@@H](CC(C)C)C(=O)N2CCC[C@H]2C(=O)N(C)[C@@H](CC(C)C)C(=O)N[C@@H](Cc2ccccc2)C(=O)N[C@@H](C)C(=O)N1C the data give PAMPA 10 × 10^-6 cm/s.

The entry for CC(C)C[C@@H]1NC(=O)C[C@H](Cc2ccccc2)NC(=O)[C@H]2CCCN2C(=O)[C@H](Cc2ccccc2)NC(=O)[C@H](CC(C)C)NC(=O)[C@H]2CCCN2C(=O)[C@H](CC(C)C)NC1=O lists PAMPA 1.8 × 10^-6 cm/s. Listed for CC(C)C[C@@H]1C(=O)N(Cc2ccccc2)CC(=O)N2CCC[C@H]2C(=O)N[C@H](CC(C)C)C(=O)N[C@@H](Cc2ccccc2)C(=O)N2CCC[C@@H]2C(=O)N(C)[C@@H](C)C(=O)N1C: PAMPA 3 × 10^-6 cm/s. CC(C)C[C@@H]1C(=O)N[C@H](CC(C)C)C(=O)N2CCC[C@H]2C(=O)N(C)[C@H](CC(C)C)C(=O)N[C@@H](Cc2ccccc2)C(=O)N2CCC[C@H]2C(=O)N(C)[C@H](C)C(=O)N1C is reported with PAMPA 7.4 × 10^-6 cm/s. CC(C)C[C@@H]1NC(=O)[C@H](C)N(C)C(=O)[C@H](Cc2ccccc2)NC(=O)CN(Cc2ccccc2)C(=O)[C@H]2CCCN2C(=O)[C@@H](CC(C)C)NC1=O has PAMPA 0.83 × 10^-6 cm/s. Listed for CC(C)C[C@@H]1C(=O)N2CCC[C@H]2C(=O)N(C)[C@H](CC(C)C)C(=O)N[C@@H](Cc2ccccc2)C(=O)N2CCC[C@H]2C(=O)N(C)[C@@H](C)C(=O)N(Cc2ccccc2)CC(=O)N1C: PAMPA 2.6 × 10^-6 cm/s.

CC(C)C[C@@H]1NC(=O)[C@H]2CCCN2C(=O)C[C@H](Cc2ccccc2)NC(=O)[C@@H](CC(C)C)N(C)C(=O)[C@H](C)NC(=O)[C@@H]2CCCN2C(=O)[C@H](Cc2ccccc2)NC1=O has PAMPA 0.83 × 10^-6 cm/s. CC(C)C[C@@H]1C(=O)N[C@H](CC(C)C)C(=O)N2CCC[C@@H]2C(=O)N(C)[C@@H](CC(C)C)C(=O)N[C@@H](Cc2ccccc2)C(=O)N[C@@H](Cc2ccccc2)CC(=O)N1C has PAMPA 7.8 × 10^-6 cm/s. CCCN1CC(=O)N(C)[C@@H](CC(C)C)C(=O)N(C)[C@@H](CC(C)C)C(=O)N2CCC[C@@H]2C(=O)N(Cc2ccccc2)CC(=O)N[C@@H](Cc2ccccc2)C1=O has PAMPA 6.5 × 10^-6 cm/s. The entry for CCCN1CC(=O)N(C)[C@H](CC(C)C)C(=O)N[C@@H](Cc2ccccc2)CC(=O)N2CCC[C@H]2C(=O)N(C)[C@H](CC(C)C)C(=O)N[C@@H](Cc2ccccc2)C(=O)N2CCC[C@@H]2C1=O lists PAMPA 2.5 × 10^-6 cm/s. For CC(C)C[C@@H]1C(=O)N[C@@H](Cc2ccccc2)CC(=O)N2CCC[C@@H]2C(=O)N(C)[C@H](CC(C)C)C(=O)N[C@@H](Cc2ccccc2)C(=O)N2CCC[C@H]2C(=O)N(C)[C@H](C)C(=O)N1C the data give PAMPA 2.8 × 10^-6 cm/s.

CC(C)C[C@@H]1NC(=O)[C@@H]2CCCN2C(=O)[C@@H](CC(C)C)NC(=O)[C@@H](CC(C)C)NC(=O)[C@@H](C)NC(=O)[C@@H]2CCCN2C(=O)[C@H](Cc2ccccc2)NC1=O has PAMPA 1.4 × 10^-6 cm/s. CC(C)C[C@@H]1NC(=O)[C@H](C)NC(=O)[C@H](Cc2ccccc2)NC(=O)[C@H](CC(C)C)N(C)C(=O)[C@@H]2CCCN2C(=O)C[C@H](Cc2ccccc2)NC1=O is reported with PAMPA 2.6 × 10^-6 cm/s. For CCCN1CC(=O)N[C@H](CC(C)C)C(=O)N(C)[C@H](CC(C)C)C(=O)N2CCC[C@@H]2C(=O)N[C@@H](CC(C)C)C(=O)N[C@@H](Cc2ccccc2)C(=O)N2CCC[C@H]2C1=O the data give PAMPA 0.85 × 10^-6 cm/s. CC(C)C[C@@H]1NC(=O)[C@@H](C)N(C)C(=O)[C@H]2CCCN2C(=O)[C@H](Cc2ccccc2)NC(=O)[C@H](CC(C)C)N(C)C(=O)[C@H]2CCCN2C(=O)[C@@H](CC(C)C)N(C)C1=O is reported with PAMPA 0.68 × 10^-6 cm/s.

Extract of 2 entries:

SMILES	PAMPA (10^-6 cm/s)
CC(C)C[C@@H]1C(=O)N2CCC[C@@H]2C(=O)N[C@H](CC(C)C)C(=O)N[C@@H](Cc2ccccc2)C(=O)N2CCC[C@H]2C(=O)N[C@@H](Cc2ccccc2)CC(=O)N[C@H](CC(C)C)C(=O)N1C	3.3
CC(C)C[C@@H]1C(=O)N(Cc2ccccc2)CC(=O)N2CCC[C@H]2C(=O)N[C@H](CC(C)C)C(=O)N[C@@H](Cc2ccccc2)C(=O)N2CCC[C@@H]2C(=O)N(C)[C@@H](C)C(=O)N1C	3

Source: CycPeptMPDB (Li et al. 2023), which took these values from Townsend et al. 2020, doi:10.26434/chemrxiv.13335941.v1.